Source: the NIST ThermoML archive (doi:10.1016/j.jct.2019.04.018)
± gives the expanded uncertainty stated by the source.

What was measured:
[1] = 100 kPa, Liquid; for viscosity: Capillary tube (Ostwald / Ubbelohde) method; for speed of sound: Frequency=2 MHz, Single path-length method; for mass density: Vibrating tube method
[2] = xn = mol fraction of the nth substance listed; settings: 100 kPa, Liquid, x2 = 0; for viscosity: Capillary tube (Ostwald / Ubbelohde) method; for speed of sound: Frequency=2 MHz, Single path-length method; for mass density: Vibrating tube method

SMILES	viscosity ([1]; 303.15 K) [mPa·s]	speed of sound ([1]; 303.15 K) [m/s]	mass density ([1]; 303.15 K) [kg/m3]	viscosity ([1]; 308.15 K) [mPa·s]	speed of sound ([1]; 308.15 K) [m/s]	mass density ([1]; 308.15 K) [kg/m3]	viscosity ([1]; 313.15 K) [mPa·s]	speed of sound ([1]; 313.15 K) [m/s]	mass density ([1]; 313.15 K) [kg/m3]	viscosity ([2]; 303.15 K) [mPa·s]	speed of sound ([2]; 303.15 K) [m/s]	mass density ([2]; 303.15 K) [kg/m3]	viscosity ([2]; 308.15 K) [mPa·s]	speed of sound ([2]; 308.15 K) [m/s]	mass density ([2]; 308.15 K) [kg/m3]	viscosity ([2]; 313.15 K) [mPa·s]	speed of sound ([2]; 313.15 K) [m/s]	mass density ([2]; 313.15 K) [kg/m3]
CCCCOCCCC [dibutyl ether]	0.602 ± 0.015	1144 ± 5	759.6 ± 1.1	0.564 ± 0.015	1128 ± 5	755.2 ± 1.1	0.529 ± 0.014	1114 ± 5	750.8 ± 1.1	–	–	–	–	–	–	–	–	–
CCCCOCCCC [dibutyl ether] + C=COC(C)=O	–	–	–	–	–	–	–	–	–	0.602 ± 0.015	1144 ± 5	759.6 ± 1.1	0.564 ± 0.015	1128 ± 5	755.2 ± 1.1	0.529 ± 0.014	1114 ± 5	750.8 ± 1.1
